Experimental data published in US7544814B2, “[3.2.0] Heterocyclic compounds and methods of using the same” (Nereus Pharmaceuticals, Inc., priority 2004, dated 2009).
“And” between values parts separate entries of the source, which are not always exact repeats. Equal entries are not always repeated.

Protein sequences, listed by entry. Tags and fused reporters are not part of them. Residues count along the entry.
UniProt G1T4Q9, 1-263: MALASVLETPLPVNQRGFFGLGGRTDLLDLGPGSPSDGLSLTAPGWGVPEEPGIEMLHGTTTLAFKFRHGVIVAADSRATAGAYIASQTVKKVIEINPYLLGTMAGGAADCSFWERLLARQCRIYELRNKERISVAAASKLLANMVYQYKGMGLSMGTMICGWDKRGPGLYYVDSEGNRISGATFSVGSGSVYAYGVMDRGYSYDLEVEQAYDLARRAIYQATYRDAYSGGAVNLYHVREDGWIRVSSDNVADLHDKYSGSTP

How the values were obtained:
[1] = biological target: T1, trypsin-like activity of purified rabbit muscle 20S proteasome (Oryctolagus cuniculus, UniProt G1SWK8); assay: In vitro inhibition of 20S proteasome trypsin-like activity (Boc-LRR-AMC); settings: read-out: Proteasome Trypsin-like EC50; Table 12
T1 sequence (G1SWK8 1-271): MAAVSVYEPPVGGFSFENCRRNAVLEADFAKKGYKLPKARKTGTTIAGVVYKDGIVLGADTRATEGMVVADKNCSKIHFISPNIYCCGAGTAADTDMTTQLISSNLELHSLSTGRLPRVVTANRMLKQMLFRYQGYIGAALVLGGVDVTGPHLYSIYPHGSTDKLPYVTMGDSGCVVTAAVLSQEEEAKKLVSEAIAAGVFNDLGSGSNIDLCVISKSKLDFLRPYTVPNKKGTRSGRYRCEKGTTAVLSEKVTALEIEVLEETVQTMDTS

[2] = biological target: chymotrypsin-like activity of purified rabbit muscle 20S proteasome (Oryctolagus cuniculus, UniProt G1T4Q9); assay: In vitro inhibition of 20S proteasome chymotrypsin-like activity (suc-LLVY-AMC)
[3] = tested on: B16-F10; assay: Growth inhibition of B16-F10 in media containing 1% or 10% FBS; assay type: cell-based; settings: Mus musculus, B16-F10, read-out: B16-F10, EC50 (nM) mean ± SD; media containing 10% FBS
[4] = biological target: T1, trypsin-like activity of purified rabbit muscle 20S proteasome; assay: biochemical
[5] = tested on: U266; assay: Cell growth inhibition (resazurin), U266; settings: Homo sapiens, U-266, 48 h, read-out: U266 EC50, Table 2; 48 hours drug exposure

Structure (SMILES) | EC50 [1] [nM] | EC50 ([2]; Proteasome Chymotrypsin-like EC50, Table 12) [nM] | EC50 [3] [nM] | EC50 [4] | EC50 [5] [nM] | EC50 ([2]; EC50 Chymotrypsin-like, Table 6, values in nM) | EC50 ([2]; EC50 values, chymotrypsin-like activity, summary of Table 6) [nM]
C[C@@]12OC(=O)[C@]1([C@@H](O)[C@@H]1C=CCCC1)NC(=O)[C@@H]2CCCl [Formula II-16] | 21 ± 2.6 | 2.6 ± 0.2 | 13 ± 1 | – | – | – | –
C[C@@]12OC(=O)[C@]1([C@@H](O)[C@@H]1C=CCCC1)NC(=O)[C@H]2CCCl [Formula II-26] | – | – | – | 2000 nM and 3000 nM | 1300 | 349 nM and 319 nM | 207 to 964
